Legend:
[1] = system: human lung cancer grafted into NUDE (LX1) mice; experiment: Antitumor activity on a human lung cancer grafted into NUDE (LX1) mice; conditions: 0.70 mg/kg i.p. at D0, D3, D6 and D9
P 388 leukemia = experiment: Antitumor activity against P 388 leukemia in mice; assay type: in vivo; conditions: for SURVIVORS 30 days: B6D2F1 mice; for SURVIVORS 30 days / SURVIVORS 60 days: n=6; for SURVIVORS 60 days: survivors at 60 days = long-term remission; for T/C % (mean survival time test group over untreated control group): values above 125% signify antitumor activity
L1210 cells = experiment: In vitro cytotoxicity, Microculture Tetrazolium Assay; assay type: cell-based; conditions: read-out: IC50 (concentration which 50% inhibits the proliferation of the control cells), 48 hours incubation

## CCOP(=O)(OCC)C(NC(=O)[C@@]1(O)[C@H](O)[C@]2(CC)C=CCN3CC[C@@]4(c5cc([C@@]6(C(=O)OC)C[C@@H]7C=C(CC)CN(Cc8c6[nH]c6ccccc86)C7)c(OC)cc5N(C)[C@@H]14)[C@@H]32)C(C)C (single isomer, unassigned)
[1]
  T/C (tumor volume treated animals/tumor volume control animals): 21
[1]; tumor 5 mm x 5 mm at start
  SGD (Standard Growth Delay): 3.1

## CCOP(=O)(OCC)C(NC(=O)[C@@]1(O)[C@H](O)[C@]2(CC)C=CCN3CC[C@@]4(c5cc([C@@]6(C(=O)OC)C[C@@H]7CN(CCc8c6[nH]c6ccccc86)C[C@](O)(CC)C7)c(OC)cc5N(C)[C@@H]14)[C@@H]32)C(C)C (single isomer, unassigned)
P 388 leukemia; 0.2 mg/kg i.p. one day after inoculation of 10^6 leukemic cells
  SURVIVORS 30 days: 5/6
P 388 leukemia; 0.2 mg/kg i.p. one day after inoculation
  SURVIVORS 60 days: 5/6
P 388 leukemia; 0.2 mg/kg i.p.
  T/C % (mean survival time test group over untreated control group): 405%

## CCOP(=O)(OCC)C(NC(=O)[C@@]1(O)[C@H](O)[C@]2(CC)C=CCN3CC[C@@]4(c5cc([C@@]6(C(=O)OC)C[C@@H]7CN(CCc8c6[nH]c6ccccc86)C[C@](O)(CC)C7)c(OC)cc5N(C=O)[C@@H]14)[C@@H]32)C(C)C (single isomer, unassigned)
P 388 leukemia; 0.1 mg/kg i.p. one day after inoculation of 10^6 leukemic cells
  SURVIVORS 30 days: 6/6
P 388 leukemia; 0.1 mg/kg i.p. one day after inoculation
  SURVIVORS 60 days: 6/6
P 388 leukemia; 0.1 mg/kg i.p.
  T/C % (mean survival time test group over untreated control group): > 550%
P 388 leukemia; dose twice as small as that of NDVAMPP
  curative effect in P 388 mice (in words): curative for all the mice
L1210 cells
  IC50: 350 pM
